# From US9156822B2, “Functionally selective ligands of dopamine D2 receptors” (The University of North Carolina at Chapel Hill, priority 2010, dated 2015)
# By UniProt entry, the sequences of proteins in these tests, tags left out.
# UniProt P14416, whole entry, looked up: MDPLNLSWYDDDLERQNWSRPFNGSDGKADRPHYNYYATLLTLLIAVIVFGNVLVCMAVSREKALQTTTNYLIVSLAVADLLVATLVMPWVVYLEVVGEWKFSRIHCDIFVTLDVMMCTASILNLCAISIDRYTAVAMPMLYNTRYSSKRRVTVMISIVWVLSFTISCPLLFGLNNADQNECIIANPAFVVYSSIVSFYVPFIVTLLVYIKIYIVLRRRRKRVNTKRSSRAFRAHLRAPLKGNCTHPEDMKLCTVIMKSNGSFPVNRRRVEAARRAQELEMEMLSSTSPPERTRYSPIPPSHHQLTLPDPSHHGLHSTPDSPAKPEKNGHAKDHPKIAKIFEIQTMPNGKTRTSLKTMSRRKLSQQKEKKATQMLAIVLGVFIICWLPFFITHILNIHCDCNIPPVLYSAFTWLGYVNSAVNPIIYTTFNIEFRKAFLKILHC
# Like-named read-outs stand apart in the source and are kept apart here.
# Assays:
# [1] = tested on: wild-type and β-arrestin-2 knockout mice; details: i.p., 5.0 mg/kg (haloperidol 2.0 mg/kg), 30 and 60 min
# in vivo = details: mouse
# D2 receptors [2] = molecular target: T1, D2 receptors (Homo sapiens (Human), UniProt P14416); assay: D2 β-arrestin recruitment (Tango) assay; assay type: cell-based; details: for EC50: HTLA cells; for Emax: normalized to quinpirole (100%)
# D2 receptors [3] = molecular target: T1, D2 receptors; details: read-out: D2 Binding Ki ± SEM
# hD2L dopamine receptor = hD2L dopamine receptor (Homo sapiens (Human), UniProt P14416); assay: pERK high-content assay; assay type: cell-based; details: normalized to dopamine; read-out: p-ERK Emax
# hD2 receptors = hD2 receptors (Homo sapiens (Human), UniProt P14416); assay: D2 mediated cAMP GloSensor assay; details: for EC50: read-out: cAMP (GloSensor) EC50; for Emax: read-out: cAMP (GloSensor) Emax; for cAMP (GloSensor) activity in words (merged EC50/Emax cell): key: neutral: Neutral ligands are either antagonists or are inactive
# [4] = HEK293T, isoproterenol-stimulated cAMP
smiles,measurement,setting,value
"O=C1CCc2ccc(OCCCCN3CCN(c4cccc(Cl)c4Cl)CC3)cc2N1 [Aripiprazole, aripiprazole, reference compound]","catalepsy (latency to move, inclined screen test)",[1],do not induce catalepsy
same,concentration at 0.08 h,in vivo; brain,88.8 ng/g
same,concentration at 0.5 h,in vivo; brain,166 ng/g
same,concentration at 1 h,in vivo; brain,134 ng/g
same,concentration at 2 h,in vivo; brain,115 ng/g
same,concentration at 4 h,in vivo; brain,75.8 ng/g
same,concentration at 8 h,in vivo; brain,42.2 ng/g
same,concentration at 24 h,in vivo; brain,8.8 ng/g
same,concentration at 0.08 h,in vivo; plasma,53.3 ng/mL
same,concentration at 1 h,in vivo; plasma,68 ng/mL
same,concentration at 2 h,in vivo; plasma,49.8 ng/mL
same,concentration at 4 h,in vivo; plasma,31.8 ng/mL
same,concentration at 8 h,in vivo; plasma,14.5 ng/mL
same,concentration at 24 h,in vivo; plasma,2 ng/mL
"O=C1NCCc2ccc(OCCCCN3CCCN(c4cccc(Cl)c4Cl)CC3)cc21 [Compound 6, 7-(4-(4-(2,3-dichlorophenyl)-1,4-diazepan-1-yl)butoxy)-3,4-dihydroisoquinolin-1(2H)-one]",β-arrestin (Tango) % activ at 1 μM,D2 receptors [2],7%
same,EC50,D2 receptors [2],6.2 nM
same,Emax,D2 receptors [2],32%
same,Ki,D2 receptors [3],4.6 ± 0.6 nM
same,Emax,hD2L dopamine receptor,< 5%
same,EC50,hD2 receptors,9870 nM
same,Emax,hD2 receptors,-76%
"Clc1cccc(N2CCCN(CCCCOc3ccc4scnc4c3)CC2)c1Cl [Compound 7, 5-(4-(4-(2,3-dichlorophenyl)-1,4-diazepan-1-yl)butoxy)benzo[d]thiazole]",β-arrestin (Tango) % activ at 1 μM,D2 receptors [2],4%
same,EC50,D2 receptors [2],23 nM
same,Emax,D2 receptors [2],38%
same,Ki,D2 receptors [3],18 ± 2 nM
same,cAMP (GloSensor) activity in words (merged EC50/Emax cell),hD2 receptors,neutral
"COc1ccccc1N1CCCN(CCCCOc2ccc3ccc(=O)[nH]c3c2)CC1 [Compound 10, 7-(4-(4-(2-methoxyphenyl)-1,4-diazepan-1-yl)butoxy)quinolin-2(1H)-one]",EC50,hD2 receptors; [4],306 nM
same,Emax,hD2 receptors,-98%
"CCOc1ccccc1N1CCCN(CCCCOc2ccc3ccc(=O)[nH]c3c2)CC1 [Compound 14, 7-(4-(4-(2-ethoxyphenyl)-1,4-diazepan-1-yl)butoxy)quinolin-2(1H)-one]",EC50,hD2 receptors; [4],27 nM
same,Emax,hD2 receptors,16%
"O=c1[nH]c2ccc(OCCCCN3CCC(c4cccc(Cl)c4Cl)CC3)cc2[nH]1 [Compound 24, 5-(4-(4-(2,3-dichlorophenyl)piperidin-1-yl)butoxy)-1H-benzo[d]imidazol-2(3H)-one]",Ki,D2 receptors [3],10.9 ± 0.3 nM
"O=c1ccc2ccc(OCCCCN3CCN(c4cccc5c4OCCO5)CC3)cc2[nH]1 [Compound 42, 7-(4-(4-(2,3-dihydrobenzo[b][1,4]dioxin-5-yl)piperazin-1-yl)butoxy)quinolin-2(1H)-one]",EC50,D2 receptors [2],0.9 nM
same,Emax,D2 receptors [2],31%
same,Ki,D2 receptors [3],0.4 ± 0.02 nM
same,cAMP (GloSensor) activity in words (merged EC50/Emax cell),hD2 receptors,neutral
